The values that follow are results of earlier work, collected in article PMC10860182 (ACS Medicinal Chemistry Letters, 2024).

For the data set, the system named is 5-HT2C. The settings on record: literature value ref 37, cited from earlier work.

SMILES strings stand for the structures.

As to `COc1ccc2[nH]cc(CCN(C)C)c2c1` [Compound 5-MeO-DMT, 5-methoxy-N,N-dimethyltryptamine], the “5-HT2C % Max” value is reported as 84% and the “5-HT2C pEC50” value is given as 7.44. Also, for the setting “read-out: 5-HT2C EC50”, the EC50 is 30.7 nM.

A word on the EC50: it is the concentration giving half of the maximal effect.
